## scFv variants of Ab-14 (heavy chain) against a SARS-CoV-2 spike peptide

The measurements come from Engelhart et al. 2022 (doi:10.1038/s41597-022-01779-4) through the FLAb antibody collection.

Binding partner: SARS-CoV-2 spike HR2 peptide, sequence PDVDLGDISGINAS.

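The parent was found by panning a naive human phage display library on the peptide. In library AAYL49, one, two or three CDR residues were substituted; doubles and triples were drawn at random. AlphaSeq pools MATa yeast showing the antibodies with MATalpha yeast showing the peptide. After mating in shaken culture at 30 °C for 16 h, diploids were selected and their barcode pairs sequenced. Read counts were normalised to the haploid input and turned into Kd by a linear fit to BCL2-family pairs of known affinity, for each replicate. Mating was done three times.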

The variants keep the light chain, the linker and the frameworks of Ab-14 (scFv order VH, the linker GGGGSGGGGSGGGGS, VL).
VH: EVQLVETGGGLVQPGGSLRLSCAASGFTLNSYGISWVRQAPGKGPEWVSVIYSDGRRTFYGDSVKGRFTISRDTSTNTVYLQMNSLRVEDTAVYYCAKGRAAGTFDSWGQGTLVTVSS
VL: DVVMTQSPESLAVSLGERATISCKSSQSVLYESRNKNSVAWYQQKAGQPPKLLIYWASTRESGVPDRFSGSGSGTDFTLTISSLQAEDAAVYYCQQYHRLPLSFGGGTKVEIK

Changes read parent residue, position, new residue, counted from the first residue of the VH shown.
Scale: log10 of Kd in nM, estimated from mating counts; low values are strong binders.
The mean shown is taken over the replicates in which the pair was detected.
A pair that was not seen in that replicate is written "ND"; this usually means weak binding, but a binder can also be missed.
As a blank, each scFv also met three strains without target: over library AAYL49, 15% of these pairings were detected, typically at 4.06 and seldom below 2.83. For each scFv, signals with the empty controls are counted beside the result, with their mean in brackets.

| # | changes | log10 Kd (nM) by replicate | mean, log10 nM | empty controls |
|---|---|---|---|---|
| 1 | Y60D+D62P+F105Y | 3.25 / 2.72 / 3.28 | 3.09 | 6/9 (4.98) |
| 2 | V50K+S107V | ND / ND / ND | ND | 3/9 (3.78) |
| 3 | G26L+F27S+Y32G | ND / 3.78 / ND | 3.78 | 1/9 (4.36) |
| 4 | R57Q+K65P+T104D | 4.87 / 4.75 / 5.32 | 4.98 | 8/9 (4.53) |
| 5 | Y32P+G61R+S63T | ND / 4.37 / ND | 4.37 | 2/9 (3.99) |
| 6 | Y32V+V64H | ND / 4.79 / 3.07 | 3.93 | 2/9 (3.26) |
| 7 | N30M+K65H+G103C | 1.44 / 1.42 / 1.25 | 1.37 | 0/9 |
| 8 | G33E+S53V+R56G | ND / 3.28 / ND | 3.28 | 2/9 (2.88) |
| 9 | G26V+S35G+Y60I | ND / ND / ND | ND | 0/9 |
| 10 | G26Y+Y32E+T104R | ND / ND / ND | ND | 0/9 |
| 11 | Y60H+G99S+R100K | 2.49 / 2.52 / 2.52 | 2.51 | 2/9 (4.34) |
| 12 | L29V+G55T | ND / ND / ND | ND | 0/9 |
| 13 | G33W | 3.47 / 3.61 / 4.42 | 3.83 | 3/9 (4.12) |
| 14 | V50K+D54S | ND / ND / ND | ND | 1/9 (2.73) |
| 15 | R57I+K65H | ND / ND / ND | ND | 4/9 (3.49) |
| 16 | S35H+R57K+G99Q | ND / ND / ND | ND | 3/9 (4.17) |
| 17 | G26I+V50P+Y52Q | ND / ND / 4.34 | 4.34 | 3/9 (4.98) |
| 18 | G55L+S63F | ND / ND / ND | ND | 0/9 |
| 19 | L29G+S35Q+T104R | ND / ND / ND | ND | 0/9 |
| 20 | L29R+R57W+A102Q | ND / ND / ND | ND | 0/9 |
| 21 | L29H+V50S+F105E | 6.42 / 3.86 / ND | 5.14 | 2/9 (4.39) |
| 22 | G99T+A102P+S107K | 4.05 / ND / 4.75 | 4.40 | 2/9 (4.53) |
| 23 | F27I+G55M+S107M | 5.06 / 4.53 / 3.96 | 4.52 | 6/9 (3.99) |
| 24 | T28V | 0.97 / 1.22 / 1.38 | 1.19 | 0/9 |
| 25 | G33L+I34D+S53E | ND / 4.80 / ND | 4.80 | 0/9 |
| 26 | G26S+F27R+G33T | ND / ND / ND | ND | 0/9 |
| 27 | T28G+D54A+G55M | ND / ND / 2.79 | 2.79 | 2/9 (3.19) |
| 28 | N30M+I51F+D106L | ND / ND / ND | ND | 0/9 |
| 29 | T28D+A102C+S107T | ND / ND / 4.44 | 4.44 | 0/9 |
| 30 | S35P+T58V+D106P | ND / 3.73 / ND | 3.73 | 1/9 (3.99) |
| 31 | L29G+S35Q+R57N | 3.53 / ND / ND | 3.53 | 2/9 (3.85) |
| 32 | F27S+Y60F+S107H | 4.48 / ND / 3.66 | 4.07 | 5/9 (4.19) |
| 33 | Y32C+Y52K+A102E | ND / ND / ND | ND | 1/9 (3.60) |
| 34 | R100E+G103E | 3.44 / 3.95 / 2.90 | 3.43 | 2/9 (3.47) |
| 35 | Y52T+G99T+S107Q | ND / ND / 3.99 | 3.99 | 1/9 (3.32) |
| 36 | G55S+R56L+S107G | 5.02 / ND / 3.74 | 4.38 | 6/9 (4.49) |

Top 2 of the variants detected in all replicates, tightest first:

{"changes": "T28V", "log10 Kd (nM) by replicate": "0.97 / 1.22 / 1.38", "mean, log10 nM": "1.19", "empty controls": "0/9"}
{"changes": "N30M+K65H+G103C", "log10 Kd (nM) by replicate": "1.44 / 1.42 / 1.25", "mean, log10 nM": "1.37", "empty controls": "0/9"}